Earlier results as cited in patent publication US20110293643A1 (published 2011).

System: rat
Conditions: rat lung transplantation; cited from earlier work

For NC(=O)C1=C(O)C[C@@H]2C[C@@H]3Cc4cccc(O)c4C(=O)C3=C(O)[C@]2(O)C1=O [COL-3], the “delayed type hypersensitivity responses to donor antigens and type V collagen” value is given as “suppressed delayed type hypersensitivity” and the rejection pathology is given as “did not prevent rejection pathology”.
